Assay: Circular dichroism of HSA secondary structure
Assay type: physicochemical
Details: 1 week incubation at 40° C., versus pristine HSA
Description: The slightly acidic environment (at or below pH 6) was employed to dissociate ZIF-8 crystals and release encapsulated NGAL via breaking coordination between the zinc ions and imidazolate. ZIF-8 encapsulated NGAL dried on the paper was almost fully eluted (>95%) whereas NGAL alone dried on the paper was only partially eluted (˜75%) (FIG. 9). It is important to note that ZIF-8 encapsulation prevented irreversible adsorption of proteins on the cellulose fibers by creating a crystal interface between the protein and paper substrate. […] NGAL concentration was tested by ELISA when NGAL was spiked in four different media. The same concentration of NGAL in phosphate-buffered saline (PBS) at pH 7.4 was set as the reference (100%). […] After storage and elution, the concentration of NGAL in the eluate was quantified using the NGAL sandwich ELISA. The preservation efficacy (preservation %) was calculated by comparing the NGAL amount in the eluate to the spiked NGAL amount in the artificial urine. […] NGAL added on a paper card was stored at 25, 40 or 60° C. for one week. […]
CD spectroscopy. […] The HSA recovered from various treatments was quantified by BCA assay for calculating molar ellipticity. The secondary structures of HSA (α-helical content, β-sheet content) were analyzed using CDPro software from CD spectra.

human serum albumin [unencapsulated HSA]
secondary structure (CD spectrum): a decrease in the α-helical content

Reference: patent publication US11856945B2, “Methods and systems for preparing and preserving a biological sample” (Washington University, priority 2017, dated 2024)
